AlphaSeq binding of Ab-14 heavy chain variants to a spike HR2 peptide

Binding partner: SARS-CoV-2 spike HR2 peptide, sequence PDVDLGDISGINAS.

The variants keep the light chain, the linker and the frameworks of Ab-14 (scFv order VH, a (GGGGS)3 linker, VL).
VH: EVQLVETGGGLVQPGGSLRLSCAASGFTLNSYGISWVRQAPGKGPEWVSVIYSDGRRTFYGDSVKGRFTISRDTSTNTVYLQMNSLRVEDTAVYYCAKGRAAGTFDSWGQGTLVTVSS
VL: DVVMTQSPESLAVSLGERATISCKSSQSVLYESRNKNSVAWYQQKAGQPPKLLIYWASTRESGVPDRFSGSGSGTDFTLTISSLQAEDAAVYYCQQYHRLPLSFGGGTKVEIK

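The parent was found by panning a naive human phage display library on the peptide. The variants were designed computationally from a first round of random CDR variants and then made and measured. Group labels follow the data file (Ctrl: baseline library sampled from a position-specific scoring matrix, with some repeated check sequences; Rand: our label for a block that the file lists under HC and that is probably the random mutants of the ten best first-round binders; GP: Gaussian process model; GPLM: also part of the Gaussian process libraries; HC: hill climbing; Gen: genetic algorithm; Gibbs: Gibbs sampling; a sequence that several methods proposed may carry one label only). In AlphaSeq, yeast of one mating type display the scFv and yeast of the other type display the target. The frequency of each diploid, read from paired DNA barcodes, reflects how well the two displayed proteins bind. Scores were corrected for input abundance and mapped to Kd with protein pairs of known affinity run in the same pool. Mating was done six times.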

Variants are written as CDR1, CDR2 and CDR3 of the heavy chain (limits as in the source). Parent: GFTLNSYGIS, VIYSDGRRTFYGDSVK, GRAAGTFDS.
This list holds designs with at most six substitutions.
The Kd shown is the geometric mean over detected replicates; a lower Kd is a better binder.
An entry "nd" has no value in the source: the pair was not observed among the diploids in any replicate. This suggests poor binding but is not conclusive.

CDR-H1	CDR-H2	CDR-H3	group	apparent Kd	detected	signal with controls
GFELNSYGIS	VIYSDGRRTFYIDSVK	GWTAGTFDS	GP_Gen	4.3 nM	6/6	0/18
GFTMNSYGIS	VIYSDGRRTFYGDDVK	GKAAGTFDS	Ctrl	80 nM	1/6	0/18
GFNLNSYGIS	VIYSDGRRTFYGDSVK	GEAAGTFDK	GPLM_Gibbs	89 nM	1/6	0/18
GFTLNSYGIS	VIYADGRRTFYGDSVK	GRAAGTADS	Ctrl	nd	0/6	0/18
GFTLNDYGIR	VIYADGRRTQYIDSVK	GRGAGTFDS	Rand	nd	0/6	0/18
GFDLNSYGIS	VIYSDGRRTFYADSVK	GTAAGTFDS	GPLM_Gen	4.1 nM	6/6	0/18
GFTLDQYGIS	VIYSDGRRTFYHDSVK	GRAAGTFDS	GP_HC	11 nM	6/6	0/18
GFDLNSYGIS	VIYSDGRRTFYGDQVK	GETAGTFDS	GP_Gibbs	2.8 nM	6/6	1/18
GFNLNSYGIS	VIYSDGRRTFYADSVK	GKEAGTFDS	GP_Gen	1.6 nM	6/6	0/18
GFTLNEYGIS	VIYSDGRRTFYGDAVK	GRAAVTFDM	GP_HC	nd	0/6	0/18
KFSLNSYGIS	VIYSDGRRTFYGDSVK	GNAAGTFDS	GPLM_Gen	490 nM	6/6	1/18
GFWLNEYGIS	VIYSDGMRTFYGDSVK	GRTAGTFDS	GPLM_Gibbs	18 nM	4/6	1/18
GFQLNSYGIS	VIYSDGRRTFYVDSVK	GHAAGTFDS	GP_HC	2.6 nM	1/6	0/18
GFSLNSYGIS	VIYSDGRRTFYSDDVK	GQTAGTFDS	GP_Gibbs	450 pM	6/6	0/18
GFTLNDYGIS	VIYSDGRRTFYGDSAK	GRAALTFIS	Rand	18 nM	1/6	0/18
GFTLNSYGIS	VIYSDGRRTFYGDSVK	GRAAGVFDV	Ctrl	240 nM	1/6	0/18
GFTLESYGIS	VIYADGRRTFYGDHVK	GRAAGTFIS	GP_HC	nd	0/6	0/18
GFWLNDYGIS	VIYSDGRRTFYHDSVK	GRTAGTFDS	GPLM_Gibbs	3.9 nM	4/6	0/18
GFTLNSYGIS	VIYSDGRRTFYEDSVK	GRVACTFDS	Ctrl	nd	0/6	0/18
GFTLNSYGIS	VIYSDGIRTFYLDSVK	GRAAGTFDS	Ctrl	130 nM	2/6	0/18
GFNLNSYGIS	VIYSDGRRTFYKDSVK	GQLAGTFDS	GP_HC	9.5 nM	6/6	0/18
GFLLNSYGIS	VIYSDGRRTFYGDSVK	GKEAGTFDT	GP_Gibbs	4.4 nM	6/6	0/18
GFTLNDYGIS	VIYSDGRRTFYGDSVK	GRATGTFDS	Ctrl	nd	0/6	0/18
GFDLNSYGIS	VIYSDGRRTFYTDSVK	GWAAGTFDS	GP_Gen	2.8 nM	6/6	0/18
GFALNSYGIS	VIYSDGRRTFYGDSVK	GRAAGTFDS	Ctrl	150 nM	6/6	2/18
GFTLNSYGIS	VIYSDVRRTFYSDSVK	GRAGGTFDS	Rand	nd	0/6	0/18
GFSLNSYGIS	VIYSDGRRTFYGDSVK	GRTAGTFDL	GPLM_Gen	27 nM	1/6	0/18
GFDLNSYGIS	VIYSDGRRTFYQDRVK	GREAGTFDD	GP_Gibbs	7.3 nM	6/6	4/18
GFSLNEYGIS	VIYSDGRRTFYEDDVK	GRTAGTFDS	GP_HC	2.3 nM	6/6	0/18
GFNLNSYGIS	VIYSDGRRTFYADSVK	GRQAGTFDS	GPLM_Gen	820 pM	2/6	0/18
GFTLNEYGIS	VIYSDGRRTFYGDSVK	GRFAGTFDF	GP_HC	69 nM	1/6	0/18
GFHLNEYGIS	VIYSDGRRTFYGDSVK	GHAAGTFDS	GP_Gibbs	2.4 nM	6/6	1/18
GRTLNSYDIS	VIYSDGRRTFYGDSVK	GRAAGTFDS	Ctrl	nd	0/6	1/18
GFNLNSYGIS	VIYSDGRRTFYVDDVK	GRQAGTFDT	GP_Gibbs	6.6 nM	6/6	0/18
GFDLNSYGIS	VIYSDGRRTFYKDSVK	GKEAGTFDT	GP_Gibbs	410 pM	6/6	0/18
GFTLNSYGYT	VIYADGRRTFYGDSVK	GRAAGTFDS	Ctrl	nd	0/6	0/18
GFSLNEYGIS	VIYSDGRRTFYIDSVK	GKAAGTFDT	GP_Gibbs	3.1 nM	6/6	0/18
GFTLNKYGIS	VIYSDGRRTFYEDSVK	GRAGGTFDS	Rand	40 nM	5/6	0/18
GFTLNSYGIS	VIYSDGRRTFYGDSFK	GRAAGTFPS	Ctrl	37 nM	3/6	1/18
GFTLNSYGIT	VIYSDGRRTFYHDSVA	GQAAGTFDT	Ctrl	nd	0/6	1/18
GFTLDSYGIS	VIYSDGRRTFYGDEVK	GRTAGTFDS	GP_Gen	1.8 nM	4/6	0/18
GDTLGSYGIS	VIYSDGRRTFYGDSVK	GRAAGTFDS	Ctrl	180 nM	2/6	0/18
GFELNSYGIS	VIYSDGKRTFYADSVK	GREAGTFDS	GP_Gen	720 pM	6/6	2/18
FFTLESYGIS	VIYADGRRTFYGDSVK	GRAAGTFKS	GP_HC	nd	0/6	0/18
GFSLNSYGIS	VIYADGRRTFYGDSVK	GRAAGTFDV	GPLM_Gen	890 pM	6/6	1/18
GFDLNSYGIS	VIYSDGRRTFYGDSVK	GKQAGTFDE	GP_Gibbs	940 pM	6/6	0/18
GFTLNSQGIS	VIYSDGRRTIYGDSVK	GRAAGTFDS	Ctrl	nd	0/6	1/18
GFVLNDYGIS	VIYSDGRRTFYIDSVK	GRLAGTFDS	GP_HC	36 nM	4/6	0/18
GFWLNEYGIS	VIYSDGRRTFYGDSVK	GRTAGTFDR	GP_Gen	20 nM	2/6	0/18
GFALNEYGIS	VIYSDGRRTYYGDSVK	GRAAGTFDS	GP_Gibbs	11 nM	5/6	0/18
GFDLNSYGIS	VIYSDGRRTFYADWVK	GQAAGTFDS	GP_Gibbs	15 nM	6/6	0/18
GFSLNSYGIS	VIYSDGKRTFYGDSVK	GKTAGTFDS	GPLM_Gen	2.4 nM	6/6	0/18
GFTLESYGIS	VIYADGRRTFYGDAVK	GRAAGTFKS	GP_HC	4.9 µM	2/6	0/18
GFTLNSYGIS	VIYSDGKRTFYIDSVK	GRVAGTFDS	GPLM_Gen	2.5 nM	1/6	0/18
GFTLNEYGIS	VIYSDGRRTFYGDRVK	GRTAGTFDT	GP_Gen	1.7 nM	6/6	1/18
GFTLNEYGIS	VIYSDGRRTFYSDSVK	GQPAGTIDS	Rand	nd	0/6	1/18
GFDLNSYGIS	VIYSDGRRTFYVDTVK	GRTAGTFDS	GP_Gibbs	15 nM	6/6	0/18
GFTLDSYGIS	VIYADGRRTFYGDSVK	GRAAGTFES	GP_HC	680 pM	3/6	0/18
GFTLNSYGIS	VIYSDGRRTFYSNSVK	GRAAGTFDS	Ctrl	31 nM	6/6	0/18
GFVLNEYGIS	VIYSDGRRTFYKDSVK	GRTAGTFDS	GP_Gen	1.1 nM	6/6	0/18
GFQLNSYGIS	VIYSDGRRTFYGDNVK	GREAGTFDT	GP_Gibbs	1.6 nM	6/6	0/18

Again, the first 8 entries without any signal:

CDR-H1	CDR-H2	CDR-H3	group	apparent Kd	detected	signal with controls
GFTLNSYGIS	VIYADGRRTFYGDSVK	GRAAGTADS	Ctrl	nd	0/6	0/18
GFTLNDYGIR	VIYADGRRTQYIDSVK	GRGAGTFDS	Rand	nd	0/6	0/18
GFTLNEYGIS	VIYSDGRRTFYGDAVK	GRAAVTFDM	GP_HC	nd	0/6	0/18
GFTLESYGIS	VIYADGRRTFYGDHVK	GRAAGTFIS	GP_HC	nd	0/6	0/18
GFTLNSYGIS	VIYSDGRRTFYEDSVK	GRVACTFDS	Ctrl	nd	0/6	0/18
GFTLNDYGIS	VIYSDGRRTFYGDSVK	GRATGTFDS	Ctrl	nd	0/6	0/18
GFTLNSYGIS	VIYSDVRRTFYSDSVK	GRAGGTFDS	Rand	nd	0/6	0/18
GRTLNSYDIS	VIYSDGRRTFYGDSVK	GRAAGTFDS	Ctrl	nd	0/6	1/18

The authors averaged sequences with at least three values out of six and counted those with two or fewer as poor binders.
The parent sequence was in this pool as ten entries: three were never detected, three once, and four in most replicates, with averages from 2.2 nM to 240 nM.
A sequence measured in both rounds can read differently, since the two assays cover different ranges.
Background: pairings of all heavy chain designs with three empty control strains gave a value in 1% of cases (median 120 nM, 5th percentile 7.0 nM). Values in that range, when seen in few replicates, are hard to tell from nonspecific mating. Also given: how often the same scFv was detected with the empty control strains.

Data: MIT Lincoln Laboratory AlphaSeq set, Li et al. 2023, doi:10.1038/s41467-023-39022-2, as distributed in FLAb.